Experimental findings from patent US7947280B2 (priority 2003, dated 2011) are described below.

The test system of this series is C57/B1/6 mice. The note with it: two weeks of apelin infusion compared to saline. The procedure: A short anesthetic (isoflurane 1% in oxygen 11/min) facilitated implantation of a 2 ml osmotic minipump under the scruff with staple closure (Alzet Osmotic pumps, Cupertino, Calif., model 1002). […] Cardiovascular parameters were recorded at 7 days and 14 days by tail cuff sphygmomanomtery (Visitech Systems, Apex, N.C.) and echocardiography (probe frequency 15 MHz, Acuson Sequoia, Siemens, Malvern, Pa.). For echocardiography, mice were anesthetized using isoflurane (0.75-1.25% in oxygen 11/min) then placed supine and warmed using a heat lamp. Using a gel buffer, parastemal long and short axis views were recorded in each animal to allow estimation of indices of contractility such as fractional shortening (LVEDD-LVESD/LVEDD), cardiac output ([Pi*(Aod)^2*VTI*HR]/4), velocity of circumferential shortening ([LVEDD−LVESD]/[ET×LVEDD]), and LV mass (1.05*[(IVSD+LVEDD+PWTD).su-p.3-LVEDD^3) where LVEDD is left ventricular end diastolic diameter, LVESD is left ventricular end systolic diameter, IVSD is inter ventricular septum in diastole, PWTD is posterior wall thickness in diastole, Aod is aortic diameter, VTI is the velocity time integral, ET is ejection time. […]
Data Analysis. Data were analyzed using Student's t statistic (paired) or the repeated measures analysis of variance using the post hoc comparison of Fisher (NCSS 2002). […]

Regarding apelin, the “post mortem organ weights (heart or ventricular weight)” value is listed as “no increase”.
